# Values of other authors in patent US7297691B2, “Treatment of sleep disorders with cholinesterase inhibitors” (priority 2003, dated 2007).
# By UniProt entry, the sequences of proteins in these tests, tags left out. Residues count along the entry.
# UniProt P06276, 29-602: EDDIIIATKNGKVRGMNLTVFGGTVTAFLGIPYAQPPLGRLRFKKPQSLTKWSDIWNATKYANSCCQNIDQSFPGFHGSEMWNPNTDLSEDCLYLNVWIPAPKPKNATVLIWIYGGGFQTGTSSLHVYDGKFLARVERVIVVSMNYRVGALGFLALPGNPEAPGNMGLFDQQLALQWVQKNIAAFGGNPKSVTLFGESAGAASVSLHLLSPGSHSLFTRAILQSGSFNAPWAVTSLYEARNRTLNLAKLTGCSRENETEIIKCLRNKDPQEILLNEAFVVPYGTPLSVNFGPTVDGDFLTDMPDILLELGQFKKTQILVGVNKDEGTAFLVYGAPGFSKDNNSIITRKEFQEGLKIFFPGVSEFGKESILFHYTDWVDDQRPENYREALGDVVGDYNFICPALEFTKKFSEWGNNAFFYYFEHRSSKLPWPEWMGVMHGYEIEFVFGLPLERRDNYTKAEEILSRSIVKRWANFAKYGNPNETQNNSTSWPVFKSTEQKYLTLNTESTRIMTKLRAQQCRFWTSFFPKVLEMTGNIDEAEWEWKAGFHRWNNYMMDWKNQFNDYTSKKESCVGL
# Like-named read-outs stand apart in the source and are kept apart here.
# Tests used:
# [1] = in humans, cited from earlier work
# [2] = target: T1, butyrylcholinesterase in plasma (Homo sapiens, UniProt P06276); conditions: after 10 mg i.v. in a healthy volunteer; cited from earlier work
# T1 construct: butyrylcholinesterase in plasma; from tissue; host or cells: plasma of a healthy volunteer after i.v. galantamine
substance,measurement,setting,value
"[4aS-(4aα,6β,8aR*)]-4a,5,9,10 11,12-hexahydro-3-methoxy-11-methyl-6H-benzofuro[3a,3,2-ef][2]benzazepin-6-ol [Galantamine]",passing the blood-brain barrier,[1],capable of passing
same,passing the blood-brain barrier,[1]; listed as galantamine,capability to pass
same,inhibition of butyrylcholinesterase in plasma,[2],no inhibition
